Measured values taken from publication PMC3479967, “Drug-Drug Interactions Potential of Icariin and Its Intestinal Metabolites via Inhibition of Intestinal UDP-Glucuronosyltransferases” (Evidence-based Complementary and Alternative Medicine : eCAM, 2012).

Molecular target: T1, UGT2B7 (Homo sapiens, UniProt P16662)
T1 sequence (P16662 24-529): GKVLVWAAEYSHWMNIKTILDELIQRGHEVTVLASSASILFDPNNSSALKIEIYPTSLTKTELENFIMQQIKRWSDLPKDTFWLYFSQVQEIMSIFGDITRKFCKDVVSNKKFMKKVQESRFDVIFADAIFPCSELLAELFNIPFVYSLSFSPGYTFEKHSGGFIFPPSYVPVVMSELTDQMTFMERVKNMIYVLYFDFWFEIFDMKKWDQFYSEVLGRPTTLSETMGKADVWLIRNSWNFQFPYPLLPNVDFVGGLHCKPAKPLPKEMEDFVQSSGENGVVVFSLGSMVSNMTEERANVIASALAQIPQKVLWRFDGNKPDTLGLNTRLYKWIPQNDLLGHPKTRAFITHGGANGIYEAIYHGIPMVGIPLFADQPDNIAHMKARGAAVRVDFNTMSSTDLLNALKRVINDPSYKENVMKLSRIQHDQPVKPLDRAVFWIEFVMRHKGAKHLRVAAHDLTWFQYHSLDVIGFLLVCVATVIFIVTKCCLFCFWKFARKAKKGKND
Test: Inhibition of recombinant UGT2B7 activity (4-MU glucuronidation)
Description: A panel of recombinant human UGT supersomes (UGT1A1, UGT1A3, UGT1A4, UGT1A6, UGT1A7, UGT1A8, UGT1A9, UGT1A10, UGT2B4, UGT2B7, UGT2B15, and UGT2B17) expressed in baculovirus-infected insect cells were purchased from BD Gentest Corp. (Woburn, MA, USA).
4-MU, a nonselective substrate of UGTs, was used as probe substrate for all UGTs except UGT1A4. Incubations with each individual enzyme were conducted using conditions previously described. There was a 5 min preincubation step at 37°C before the reaction was started by addition of UDPGA. The incubation mixtures were then centrifuged at 20,500 ×g for 15 min to obtain the supernatant. Aliquots (20 μL) were then analyzed by HPLC. The HPLC system (SHIMADZU, Kyoto, Japan) consisted of an SCL-10A system controller, two LC-10AT pumps, a SIL-10A auto injector, and a SPD-10AVP UV detector. Chromatographic separation was achieved using a Kromasil ODS column (4.6 × 150 mm I.D., 5 μm particle size) at a flow rate of 1 mL/min and UV detection at 316 nm. The mobile phase consisted of 10 mM KH2PO4, pH 2.7 (A) and acetonitrile (B). […]
Inhibition data from experiments were graphically represented by Dixon plots. K i values were calculated by nonlinear regression using the equations for competitive inhibition (1), noncompetitive inhibition (2), or mixed inhibition (3), [22] […]

Work on Icariside II yielded an IC50 (read-out: IC50 for inhibition of UGT2B7 activity, recombinant human UGT2B7, 350 μM 4-MU, mean ± SD) of 12.5 ± 0.1 µM and a Ki (read-out: Ki against UGT2B7, recombinant UGT2B7, 4-MU substrate, mean ± standard error) of 8.2 ± 1.5 µM.
